Ab-14 light chain CDR variants: yeast mating affinities

Target peptide (SARS-CoV-2 spike, HR2 region): PDVDLGDISGINAS

Ab-14 is the parent antibody, in scFv form: VH, then three GGGGS repeats, then VL. The heavy chain is unchanged in all variants.
VH: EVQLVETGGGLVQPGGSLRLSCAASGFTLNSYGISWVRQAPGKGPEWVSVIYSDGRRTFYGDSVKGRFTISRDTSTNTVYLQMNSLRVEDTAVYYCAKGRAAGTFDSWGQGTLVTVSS
VL: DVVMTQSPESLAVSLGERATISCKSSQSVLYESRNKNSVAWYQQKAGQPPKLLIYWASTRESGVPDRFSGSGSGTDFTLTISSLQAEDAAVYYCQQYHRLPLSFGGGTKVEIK

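Phage display of a naive human antibody library on the peptide gave the parent. This is the validation round: designs drawn from the data on random variants, tested in the same kind of assay. Several design methods are mixed in this list. The assay is AlphaSeq: two haploid yeast populations carry antibody and antigen on their surface. Pairs that bind mate more often; barcode pairs of the diploids are counted by sequencing. A regression on co-assayed BCL2-family reference pairs converts the normalised counts of each replicate to an apparent Kd. Each pool was mated in six replicate cultures.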

The parent's light chain CDRs are KSSQSVLYESRNKNSVA, WASTRES, QQYHRLPLS; each variant's own CDRs replace them letter for letter.
Variants here have more than six changes.
Kd is apparent (estimated from mating counts) and averaged on the log scale over replicates with a signal. Smaller is tighter.
"no signal" marks a missing value. The strain was present, yet no cells mated with the target were sequenced in any replicate, which points to weak or no binding.

CDR-L1	CDR-L2	CDR-L3	Kd (apparent)	replicates with signal
MLRFDITDGQKNWNNIA	ETSELGA	QQYMHLPLG	1.2 nM	6/6
HLGGLMTWEEKARNSVA	QQNTRAE	QQYHRLPLS	2.3 nM	6/6
GILSQMDGPTEYKENIA	NGTERLP	QQYQRLPLT	7.8 nM	6/6
TISQMTSLFSQSINNVA	EVSMREP	QQYDRLPLV	19 nM	6/6
TLYGLSMSMAKNKNNVA	EMTTREK	QQYDRLPLV	19 nM	6/6
TLSQMSGVESVKHNSVA	ENSTREN	QQYDRLPLS	12 nM	6/6
KLTHPTDSWLNHVSSIA	DANISVE	QQYYQLPLT	9.2 nM	4/6
HITDLMYNNNEGMKNIA	DKNISVM	QQYFRLPLI	630 pM	6/6
NISLFIPEQKEWDANIA	GATLKPT	QDYARLPLS	8.2 µM	1/6
YVSSQAAQDRNQQYSIA	GVDYREK	QQYYHLPLS	6.6 nM	6/6
ALQMERLGQKQWQNNIA	NQDMRTA	QQYYMLPLV	320 pM	6/6
KAPQSDLYESRNKNSVA	SASTRSQ	QQYHRLPLQ	1.3 nM	6/6
KMSQSSQYEEHNANSVA	YASTRES	QQYHRLPLL	12 nM	6/6
KISMMYRYESQEKNSIA	EMSTREE	QSYHRLPLS	43 nM	6/6
TISGMTNQSASKHNSVA	NVTMRPN	QQYARLPLS	7.3 nM	6/6
IFSQSVLMGNLTKNSVA	QASTRFE	QQYHRLPLI	61 nM	6/6
KLSWSVPYEERNLNNVA	HGSTRCS	QQYHRLPLS	2.1 nM	6/6
TISQSAQMESHNKNSVA	DLNVRGN	QQYDRLPLS	5.5 nM	6/6
IVSQLMLWGWHAKNSIA	EAQVRLN	QQYDRLPLM	30 nM	1/6
HIDQYTSYENGENRAIA	DVSIKDY	QQYARLPLL	3.7 nM	6/6
KISMYLNKESKAGNNVA	EMVTRES	QQYDRLPLS	9.0 nM	6/6
ALQQLELYESRNKNSVA	NASTRED	QQYHRLPLS	1.1 nM	6/6
KLYQMMGYLSHNKNSIA	DMSRREN	QQYHRLPLS	4.2 nM	6/6
HMSSLTLGGMRHMNSVA	QMTTREN	QQYDRLPLS	5.0 nM	6/6
MMSQVTALGQRHRNNVA	QTSTRED	QQYDRLPLV	79 nM	6/6
RLMGWGPDQIQHANSIA	DRDEVDS	QQYAHLPLS	29 nM	5/6
KQSQSQLYESGNGNSVA	NASVRED	QQYHRLPLS	2.0 nM	6/6
MLSEVLHMLGVMKNSIA	DLVLRAN	QQYHRLPLF	no signal	0/6
KITTSLYRWGSDKGAVA	EENIRAR	QQYFRLPFS	1.9 nM	6/6
HMSDSIEKMASHARNIA	DEQTLAM	QQYYRLPLS	no signal	0/6
KIGMTLNQLEHKKNNVA	DLVERAN	QQYFRLPLS	1.5 nM	6/6
QLGASFDLTSKNKNSVA	EQSTREN	QQYHRLPLS	1.1 nM	6/6
QFDLFENYQGMQNASIA	GETNRHT	QQYQKLPLS	no signal	0/6
KQQQGDLMESRNKNSVA	HASERES	QQYHRLPLS	1.5 nM	6/6
KVDQWWDYESRNKNSVA	NASTRER	QQYHRLPLS	630 pM	6/6
TISMHTSLFSQTINNVA	EVSTREQ	QQYDRLPLQ	13 nM	6/6
KLTSLTGTEKVRGNNVA	EMETREK	QQYNRLPLA	1.4 nM	6/6
KQQFSGMYGSRNKNSVA	KASTRES	QQYHRLPLS	85 nM	6/6
KVSQSWQYESRNKQSVA	HASQREE	QQYHRLPLS	1.5 nM	6/6
TLYGLTLSMSKNVNSVA	EMTTREK	QQYDRLPLS	5.9 nM	6/6
HLEQSSPYESRNKNSVA	NASLRCS	QQYHRLPLS	4.8 nM	6/6
MISQILNMGQFAINSVA	QASLRCN	QQYDRLPLI	90 nM	6/6
SIEWEEWNGQSVGHNIA	ADTQVLE	QQYFRLPFT	20 nM	6/6
TISDLIMVASRNKNSVA	DESARPD	QQYHRLPLS	1.5 nM	6/6
KISSLTLYESVEKNNVA	EMSTRPS	QSYHRLPLS	11 nM	6/6
KVSQSAWMEERNFNSVA	NASTRES	QQYHRLPLS	920 pM	6/6
NVSIEHYEGTRYWEAVA	DHSQRNN	QQYDQLPLS	13 nM	6/6
KMEQGVMYESRNKGSVA	GASVRES	QQYHRLPLS	2.2 nM	6/6
GVDHTMYSAQQAPNSIA	NAEQTNI	QQYQRLPLS	4.7 nM	6/6
KWQQSEEYESRNFNSVA	EASCRNS	QQYHRLPLS	4.0 nM	6/6
MMSQVTGLGQRHRNNVA	QTSTREE	QQYDRLPLI	19 nM	6/6
IISQSVLGEYHNKNNVA	QTSERGS	QQYDRLPLS	1.1 nM	6/6
HLYTENYTQKNRTNAIA	DARERVQ	QQYSRLPIM	13 nM	6/6

The 4 strongest on average among those seen in every replicate, once more:

CDR-L1,CDR-L2,CDR-L3,Kd (apparent),replicates with signal
ALQMERLGQKQWQNNIA,NQDMRTA,QQYYMLPLV,320 pM,6/6
HITDLMYNNNEGMKNIA,DKNISVM,QQYFRLPLI,630 pM,6/6
KVDQWWDYESRNKNSVA,NASTRER,QQYHRLPLS,630 pM,6/6
KVSQSAWMEERNFNSVA,NASTRES,QQYHRLPLS,920 pM,6/6

Values of this round are not directly comparable with the first-round values of the same sequences.
The authors averaged sequences with at least three values out of six and counted those with two or fewer as poor binders.
The parent sequence was in this pool as ten entries: three were never detected, three once, and four in most replicates, with averages from 2.2 nM to 240 nM.
Background: pairings of all light chain designs with three empty control strains gave a value in 4% of cases (median 430 nM, 5th percentile 38 nM). Values in that range, when seen in few replicates, are hard to tell from nonspecific mating.

Data: MIT Lincoln Laboratory AlphaSeq set, Li et al. 2023, doi:10.1038/s41467-023-39022-2, as distributed in FLAb.